Biological target: human Mdm2 protein (amino acids 1–125) (Homo sapiens, UniProt Q00987)
Assay: Isothermal titration calorimetry
Format: binding
Conditions: PBS pH 7.2, 3% DMSO, 0.001% Tween-20, duplicates

The chains behind the UniProt entries cited, without tags or fusion partners. Where a name states a change or a piece, a line headed by the entry shows the natural chain unless it says otherwise.
UniProt Q00987: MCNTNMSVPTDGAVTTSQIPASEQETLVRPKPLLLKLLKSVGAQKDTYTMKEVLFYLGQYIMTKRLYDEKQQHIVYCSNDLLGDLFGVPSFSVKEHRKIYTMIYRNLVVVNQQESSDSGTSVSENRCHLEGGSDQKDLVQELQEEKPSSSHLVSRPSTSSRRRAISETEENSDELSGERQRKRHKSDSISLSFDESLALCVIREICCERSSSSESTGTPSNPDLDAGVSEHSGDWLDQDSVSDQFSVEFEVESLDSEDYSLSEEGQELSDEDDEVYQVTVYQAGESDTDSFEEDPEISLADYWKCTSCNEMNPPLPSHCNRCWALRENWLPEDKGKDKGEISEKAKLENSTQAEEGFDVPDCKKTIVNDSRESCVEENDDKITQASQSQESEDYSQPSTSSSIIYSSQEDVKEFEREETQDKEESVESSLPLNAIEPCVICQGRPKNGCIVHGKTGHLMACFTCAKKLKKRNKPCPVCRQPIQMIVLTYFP

ITC enthalpy of binding (ΔH) to Mdm2: -34.5 kJ/mol
SMILES: CC(C)C[C@H]1NC(=O)[C@@H](CCCCN)NC(=O)[C@@H](CCC(=O)O)NC(=O)[C@@H](Cc2ccc(C(F)(F)F)cc2)NC(=O)[C@@H](CC(N)=O)NC(=O)[C@@](C)(NC(=O)[C@@H](Cc2ccc(O)cc2)NC(=O)[C@@H](Cc2c[nH]c3cc(F)ccc23)NC(=O)[C@@H](C)NC(=O)[C@H](N)[C@H](C)O)CCCCCC/C=C\CCC[C@](C)(C(N)=O)NC(=O)[C@@H](CC(C)C)NC1=O [^dPMI-δ(5-12)]
